High-throughput results deposited in PubChem by Broad Institute.
The list is not random: actives were taken first. Their share in the collection is about 2.8%.
E-selectin induc = induces E-selectin expression in human endothelial cells; P16581; HUVEC E-selectin immunofluorescence imaging; normalized: neutral wells 0, TNF-alpha wells 100; activation, % at 7.58 µM; 260,000 compounds, 0.37% hits; AID 686992;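 active = mean E-selectin-positive cell signal at least 10% of the positive control, reached in at least 60% of replicates, without over 20% cell loss; inconclusive = no rule given, readout overlaps actives, possibly toxicity-flagged; inactive = the rest, including those meeting only one limit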
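Material: HUVEC primary endothelial cells; Amount: 3,000 cells per well; Dosing: single concentration; Medium: EGM-2 growth medium on 0.1% gelatin-coated wells; Read-out basis: percent E-selectin-positive cells; Signal: immunofluorescence imaging; Control set: TNF-alpha, DMSO.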
PglD DTNB = PglD (C. jejuni) enzyme inhibition; purified PglD enzyme, DTNB colorimetric CoA detection; inhibition, % at 12.5 µM; 360,000 compounds, 0.098% hits; AID 602405; in the data active = inhibition above about 16%, passing the limit was not always enough; inconclusive = no clear call, values can overlap the other calls
esBAF inh = blocks esBAF chromatin remodeling in mouse ES cells. reporter increase, % at 12.5 µM. AID 602393. 350,000 compounds, 2% hits. Bmi1-luciferase knock-in reporter, 24 h; 100% = twice the neutral-well signal; in the data active = activation above about 40%; inconclusive = no clear call, values can overlap the other calls;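 note: 0% = median of the plate's neutral control wells and 100% = double that signal; a rise in the Bmi1 reporter signal indicates esBAF inhibition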
Yeast UUG start = modulators of start codon recognition fidelity in yeast; AID 602363; activity score, % at 18.7 µM; S. cerevisiae UUG-firefly luciferase reporter, luminescence/redox ratio; 0.13% of 350,000 active;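 active = replicate mean at a twofold rise or more, about +100% in these data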;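 note: firefly luciferase made from a UUG start codon reports start codon fidelity; reporter light over untreated wells divided by growth signal over untreated wells; some hits fall short of that in this replicate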
C2C12 statin = suppressors of simvastatin-induced myotoxicity in C2C12 myotubes; rescue of ATP level, % at 7.49 µM; ATP luminescence, 48 h; scaled: DMSO 0, geranylgeraniol control 100; 330,000 compounds, 0.78% hits;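 active = mean ATP rescue above about 67%, or every replicate alone reaching that limit, limit read from the data, passing the limit was not always enough; inconclusive = no clear call, values can overlap the other calls; inactive = mean under the limit and some replicate under it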;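 note: myotubes were challenged with 10 µM simvastatin during compound exposure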
PGC1a acetyl inh = modulators of PGC1a acetylation; inhibition, % at 15.6 µM; 350,000 compounds, 0.17% hits; U2OS PGC1a acetylation, AlphaScreen anti-acetyl-lysine; with virally co-expressed GCN5 acetyltransferase;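 active = every replicate shows inhibition of at least 40%; inconclusive = mean inhibition at least 40% but some replicate below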;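 note: 0% = neutral control wells and 100% = positive control wells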
Numbers without * were called inactive; ? = inconclusive; / = no result.

Labels used below – A = E-selectin induc; B = PglD DTNB; C = esBAF inh; D = Yeast UUG start; E = C2C12 statin; F = PGC1a acetyl inh
1: Cc1ccc(S(=O)(=O)N[C@@H]2CC[C@H](CC(=O)NCCN3CCCCC3)O[C@H]2CO)cc1
  A = 0	B = -4	C = -1	D = -2	E = 2	F = 2

2: COc1ccc(S(=O)(=O)N(C)C[C@H]2OCc3cn(nn3)CCCC(=O)N([C@H](C)CO)C[C@H]2C)cc1
  A = 0	B = /	C = -1	D = /	E = -30	F = -1

3: C[C@H]1CN([C@@H](C)CO)S(=O)(=O)c2ccc(-c3cncnc3)cc2O[C@@H]1CN(C)C(=O)c1cccc(F)c1
  A = 0	B = -3	C = -1	D = -5	E = -13	F = -7

4: O=C(CN1CCOCC1)N[C@H]1CC[C@H](CCNC(=O)C2CCCC2)O[C@@H]1CO
  A = 0	B = 3	C = 2	D = -1	E = -3	F = 1

5: Cc1ccccc1S(=O)(=O)N[C@@H]1CC[C@@H](CCn2cc(Cc3ccccc3)nn2)O[C@H]1CO
  A = 0	B = -2	C = 6	D = -10	E = -1	F = 61*

6: C[C@@H]1CN([C@H](C)CO)C(=O)c2cc(NS(=O)(=O)c3cn(C)cn3)ccc2O[C@@H](C)CCCCO[C@@H]1CN(C)CC1CC1
  A = 0	B = 1	C = 0	D = /	E = /	F = -2

7: Nc1ccc2nc(-c3ccc(Cl)cc3)[nH]c2c1
  A = 3	B = 0	C = 12	D = 3	E = -12	F = -15

8: Nc1ccc2nc(-c3cc(Cl)c(N)c(Cl)c3)[nH]c2c1
  A = -1	B = 2	C = 48*	D = -23	E = 28	F = -31

9: C[C@@H]1CN([C@H](C)CO)C(=O)c2cc(NS(C)(=O)=O)ccc2O[C@@H](C)CCCCO[C@H]1CN(C)CC1CC1
  A = 0	B = 9	C = 0	D = /	E = /	F = -7

10: Cc1ccc(S(=O)(=O)N(C)C[C@@H]2Oc3c(NC(=O)NC4CCCCC4)cccc3C(=O)N([C@H](C)CO)C[C@H]2C)cc1
  A = 0	B = 1	C = 1	D = 11	E = -13	F = -1

11: O=C(CNc1ccc(Br)cc1)c1ccc(Br)s1
  A = 1	B = /	C = 58*	D = /	E = 11	F = -1

12: CC(C)NC(=O)Nc1ccc2c(c1)C(=O)N([C@H](C)CO)C[C@@H](C)[C@H](CN(C)Cc1ccc3c(c1)OCO3)O2
  A = 1	B = 1	C = 2	D = -5	E = -5	F = -2

13: C[C@H](CO)N1C[C@H](C)[C@H](CN(C)C(=O)C2CC2)Oc2cc(-c3ccc(C(=O)N(C)C)cc3)ccc2S1(=O)=O
  A = 0	B = /	C = /	D = /	E = 0	F = 2

14: COc1cccc(N2CCN(c3ncccn3)CC2)c1
  A = /	B = /	C = 43*	D = /	E = -1	F = /

15: COc1cccc(C(=O)N2CCN(c3ncccn3)CC2)c1
  A = /	B = -2	C = -1	D = -11	E = 2	F = -8

Of the compounds above, 3 contain an aryl methoxy group:
Labels used below – A = E-selectin induc; B = PglD DTNB; C = esBAF inh; D = Yeast UUG start; E = C2C12 statin; F = PGC1a acetyl inh
2: COc1ccc(S(=O)(=O)N(C)C[C@H]2OCc3cn(nn3)CCCC(=O)N([C@H](C)CO)C[C@H]2C)cc1
  A = 0	B = /	C = -1	D = /	E = -30	F = -1

14: COc1cccc(N2CCN(c3ncccn3)CC2)c1
  A = /	B = /	C = 43*	D = /	E = -1	F = /

15: COc1cccc(C(=O)N2CCN(c3ncccn3)CC2)c1
  A = /	B = -2	C = -1	D = -11	E = 2	F = -8

Next part:
Labels used below – A = E-selectin induc; B = PglD DTNB; C = esBAF inh; D = Yeast UUG start; E = C2C12 statin; F = PGC1a acetyl inh
16: CC(=O)Nc1cc(OC(C)=O)c2nonc2c1OC(C)=O
  A = /	B = -5	C = -3	D = -7	E = 2	F = 44*

17: CC(=O)Nc1nonc1NC(C)=O
  A = /	B = -2	C = 1	D = -5	E = 7	F = -4

18: O=C(NCc1ccccc1F)[C@H]1N[C@H]2c3ccc(-c4ccccc4F)c(=O)n3C[C@H]2[C@@H]1CO
  A = 0	B = 10	C = -7	D = /	E = -22	F = 28

19: CC(C)NC(=O)N(C)C[C@@H]1OCCCC[C@@H](C)Oc2ccc(NC(=O)CCC(F)(F)F)cc2C(=O)N([C@H](C)CO)C[C@H]1C
  A = /	B = /	C = /	D = /	E = /	F = -1

20: Cc1ccc(S(=O)(=O)Nc2ccc3c(c2)C(=O)N([C@H](C)CO)C[C@@H](C)[C@H](CN(C)Cc2ccc(Oc4ccccc4)cc2)O3)cc1
  A = 1	B = /	C = 3	D = /	E = -10	F = 4

21: CCC(Sc1nc2n[nH]c(C)c2c(=N)n1-c1ccc(C)c(Cl)c1)C(=O)N1CCOCC1 (stereo not drawn)
  A = /	B = -5	C = 3	D = -13	E = 96*	F = 2

22: O=C(N[C@@H]1CC[C@@H](CCn2cc(-c3ccc(F)cc3)nn2)O[C@@H]1CO)c1cnccn1
  A = 0	B = -4	C = -1	D = -9	E = 6	F = -9

23: COC(=O)N1CCc2c(sc(NC(=O)C3COc4ccccc4O3)c2C(N)=O)C1 (stereo not drawn)
  A = /	B = -1	C = 50*	D = -7	E = 0	F = /

24: COc1cc(C(=O)N(CCc2ccccc2)C2=CC3CCC(C2)N3C)cc(OC)c1OC (stereo not drawn)
  A = /	B = 8	C = 0	D = 0	E = 91*	F = -7

25: Cc1ccsc1C1Nc2ccc3ncccc3c2C2=C1C(=O)CCC2 (stereo not drawn)
  A = /	B = -1	C = -7	D = -8	E = 79*	F = -7

26: O=C(O)c1cc(-c2ccc(/C=C3/SC(=S)N(Cc4ccccc4)C3=O)o2)ccc1Cl
  A = /	B = 1	C = 54*	D = -5	E = -2	F = 4

27: Cc1ccc(/C=C2\SC(=S)N(Cc3ccccc3)C2=O)o1
  A = /	B = 5	C = 5	D = -23	E = -5	F = 1

28: Nc1c(-c2cccc(Cl)c2)cnn1-c1ccccc1
  A = 1	B = -7	C = 52*	D = -15	E = -1	F = -10

29: Nc1c(-c2cccc(Cl)c2)cnc2c(-c3ccccc3)cnn12
  A = 0	B = 3	C = 60*	D = -9	E = -35	F = 7

30: Nc1c(-c2ccccc2)cnn1-c1ccccc1
  A = 3	B = 0	C = 23	D = -33	E = -14	F = -1

Carrying on.
Labels used below – A = E-selectin induc; B = PglD DTNB; C = esBAF inh; D = Yeast UUG start; E = C2C12 statin; F = PGC1a acetyl inh
31: Nc1c(-c2ccc(Cl)cc2)cnc2c(-c3ccc(F)cc3)cnn12
  A = 0	B = -2	C = ?	D = -11	E = -80	F = 1

32: COc1cccc(-c2noc(CCC(=O)Nc3cccnc3)n2)c1
  A = /	B = 4	C = 52*	D = -15	E = 10	F = 4

33: O=C(CCCc1nc(-c2ccccc2)no1)Nc1cccnc1
  A = /	B = 4	C = -3	D = -17	E = 86*	F = 29

34: CCN1[C@@H]2c3ccc(-c4cccnc4)c(=O)n3C[C@@H]2[C@@H](CO)[C@@H]1C(=O)NC1CCCCC1
  A = 0	B = -2	C = -2	D = /	E = -6	F = /

35: CC(C)c1ncc(C(O)c2ccccc2)n1C (stereo not drawn)
  A = 0	B = /	C = 4	D = /	E = -2	F = 3

36: CC(C)c1ccc(C(O)c2cnc(C(C)C)n2C)cc1 (stereo not drawn)
  A = 2	B = 5	C = 73*	D = -21	E = -8	F = 2

37: COc1ccccc1Nc1ncc(-c2cccs2)s1
  A = /	B = 6	C = 54*	D = -12	E = -14	F = -2

38: COc1ccccc1Nc1ccc(C(=O)NCc2cccs2)cn1
  A = /	B = 8	C = -3	D = -13	E = 1	F = 3

39: O=C(C[C@H]1CC[C@H]2[C@@H](COC[C@@H](O)CN2S(=O)(=O)c2cccc(Cl)c2)O1)NC1Cc2ccccc2C1
  A = 0	B = 2	C = -1	D = 3	E = 15	F = 1

40: COC(=O)c1sccc1NC(=O)Nc1cc(C)cc(C)c1
  A = /	B = -4	C = 80*	D = 1	E = -1	F = 4

41: COC(=O)c1sccc1NC(=O)Nc1ccc(C)cc1C
  A = 0	B = -5	C = 8	D = -2	E = 1	F = 0

42: COC(=O)c1sccc1NC(=O)Nc1ccc(C)cc1
  A = /	B = 1	C = 44*	D = -36	E = 7	F = 5

43: CN1[C@@H]2c3ccc(-c4ccncc4)c(=O)n3C[C@@H]2[C@@H](CO)[C@@H]1C(=O)NCCc1ccccc1
  A = 1	B = 1	C = -6	D = 5	E = -3	F = /

44: CCOC(=O)c1cnc(SCc2ccccc2)nc1N
  A = /	B = 1	C = 79*	D = -1	E = -15	F = -8

45: CCOC(=O)CC(=O)CSc1ncc(C(=O)OCC)c(N)n1
  A = /	B = -1	C = 17	D = -13	E = 120*	F = 6

46: CCOC(=O)c1cnc(SCC(=O)OC)nc1N
  A = /	B = /	C = /	D = /	E = /	F = 0

47: Cc1ccsc1CN(C)Cc1nc(C2CC2)no1
  A = 513*	B = /	C = /	D = /	E = /	F = /
